# Antibody variant affinities, Ab-14 light chain, assay B

Values reported by Li et al. 2023, doi:10.1038/s41467-023-39022-2 (FLAb copy).

All variants were tested on one target, the spike HR2 peptide PDVDLGDISGINAS (SARS-CoV-2).

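Phage display of a naive human antibody library on the peptide gave the parent. These sequences belong to a second round, designed from the earlier measurements on random variants of the parent. Their group label is 14L_GP_Gibbs (GP: Gaussian process model; Gibbs: Gibbs sampling; a sequence that several methods proposed may carry one label only). AlphaSeq pools MATa yeast showing the antibodies with MATalpha yeast showing the peptide. Mating (16 h, 30 °C) was followed by selection of diploids and sequencing of their barcodes. Each replicate has its own calibration line, from reference interactions of the BCL2 family. There are six technical replicates.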

The variants keep the heavy chain, the linker and the frameworks of Ab-14 (scFv order VH, the linker GGGGSGGGGSGGGGS, VL).
VH: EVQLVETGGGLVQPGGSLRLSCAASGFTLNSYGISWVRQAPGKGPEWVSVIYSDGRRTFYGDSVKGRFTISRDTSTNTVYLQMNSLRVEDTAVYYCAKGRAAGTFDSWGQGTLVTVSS
VL: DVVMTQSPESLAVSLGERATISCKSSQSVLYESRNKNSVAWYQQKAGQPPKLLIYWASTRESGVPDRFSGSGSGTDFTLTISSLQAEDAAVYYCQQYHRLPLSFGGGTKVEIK

Variants are written as CDR1, CDR2 and CDR3 of the light chain (limits as in the source). Parent: KSSQSVLYESRNKNSVA, WASTRES, QQYHRLPLS.
The read-out is the apparent dissociation constant on a log10 scale (nM): the lower, the stronger.
"nd" means that the variant was in the library but no mating with the target was seen in that replicate; the authors take this as a sign of poor binding, and no number exists.
Nonspecific signal, from three strains lacking the peptide, appeared in 4% of pairings of all light chain designs, centred on 2.64 (5% of these signals below 1.59); values are not corrected for it. For each scFv, signals with the empty controls are counted beside the result, with their mean in brackets.
The authors averaged sequences with at least three values out of six and counted those with two or fewer as poor binders.
Values of this round are not directly comparable with the first-round values of the same sequences.

| CDR-L1 | CDR-L2 | CDR-L3 | replicates, log10 nM | signal with controls |
|---|---|---|---|---|
| KFSQSWWYESRVKNNVA | NASQRES | QCYHRLPLS | 0.75 / 0.52 / 1.04 / 0.79 / 0.98 / 0.74 | 1 of 18 (3.47) |
| KIQQFYEYESRNKNSVA | SASTRMS | QQYHRLPLS | 0.41 / 0.14 / 0.54 / -0.08 / 0.50 / 0.22 | 1 of 18 (2.53) |
| KVPFSVLYESRNKNSVA | QASTREK | QQYHRLPLS | 0.40 / 0.77 / 0.36 / 0.32 / 0.31 / 0.54 | 1 of 18 (2.89) |
| KLQMQMLYESRMMNSVA | DASQRES | QQYHRLPLS | -0.07 / -0.01 / -0.45 / -0.56 / -0.46 / -0.14 | 0 of 18 |
| KLMQSMEYESRNSNSVA | QASTREH | QQYHRLPLM | 2.05 / 2.22 / nd / nd / 2.39 / 1.16 | 0 of 18 |
| KSSQMDLYESRNGNSVA | DASTRED | QQYHRLPLS | 0.35 / 0.16 / -0.11 / -0.20 / 0.70 / 0.28 | 1 of 18 (2.22) |
| KLEQSMLYESRNSNSVA | NASTREH | QQYHRLPLM | 0.24 / 0.17 / 0.28 / 0.15 / 0.06 / 0.08 | 1 of 18 (3.02) |
| ALSGSHLYESRMKNSVA | NASTREE | QQYHRLPLS | 0.43 / 0.33 / 0.31 / 0.25 / 0.37 / 0.39 | 1 of 18 (3.59) |
| KASPSEGYESRNKNSVA | NASYRES | QQYHRLPLS | 0.43 / 0.06 / 0.15 / 0.19 / 0.02 / 0.37 | 2 of 18 (2.52) |
| KISQSVGYQDRNKNSVA | NAQQRMQ | QQYHRLPLS | -0.14 / 0.13 / 0.11 / 0.48 / 0.14 / 0.11 | 0 of 18 |
| KQDQSCPGEQRNKNSVA | SASTRCS | QQYHRLPLS | 0.37 / 0.60 / 0.15 / 0.23 / 0.44 / 0.96 | 2 of 18 (2.22) |
| KVSTSELEESRNKNSVA | WASHREE | QQYHRLPLS | 0.45 / -0.09 / 0.48 / -0.14 / 0.02 / 0.41 | 0 of 18 |
| KVEGSHLYESRMGNSVA | NASQRED | QQYHRLPLS | 0.35 / 0.24 / 0.19 / -0.06 / 0.26 / 0.42 | 1 of 18 (2.78) |
| KLRQSMLYEDRNKNSVA | NASQRCS | QQYHRLPLS | -0.28 / -0.32 / -0.52 / -0.63 / -0.59 / -0.17 | 1 of 18 (2.04) |
| KLMQGWDMESRNKNSVA | NASMRLD | QQYHRLPLS | 0.43 / 0.29 / 0.15 / 0.21 / 0.19 / 0.29 | 0 of 18 |
| ILDQSHLYESRNKNSVA | NANTREE | QQYHRLPLS | -0.33 / -0.44 / -0.34 / -0.66 / -0.37 / -0.37 | 2 of 18 (2.91) |
| KLSQSVCYEQRQKNSVA | NASTRMS | QQYHRLPLS | 1.01 / 1.50 / 0.52 / 0.62 / 1.27 / 1.00 | 0 of 18 |
| KVSIEDLGGDRNKNSVA | HASLRES | QQYHRLPLS | 0.17 / 0.17 / -0.05 / -0.22 / 0.13 / 0.13 | 5 of 18 (3.25) |
| KFSPSVLYEDRNWNSVA | QASQRNS | QQYHRLPLS | 0.48 / 0.32 / 0.28 / 0.44 / 0.26 / 0.64 | 3 of 18 (2.71) |
| KMQGSNLYESRNCNSVA | NASTRLW | QQYHRLPLS | 0.54 / 0.67 / 0.79 / 0.49 / 0.61 / 0.44 | 0 of 18 |
| KIEQSMLYEDRNKNSVA | NASQREV | QAYHRLPLS | 0.59 / 0.21 / 0.32 / 0.40 / 0.67 / 0.56 | 0 of 18 |
| KLSMQVMMWSRNTNSVA | EANTREE | QQYHRLPLS | 0.51 / 0.70 / 0.51 / 0.61 / 0.65 / 1.04 | 1 of 18 (2.14) |
| KWSQLVLGESRNKNSVA | NASQREE | QQYHRLPLS | 0.55 / 0.44 / 0.22 / 0.12 / 0.16 / 0.51 | 1 of 18 (1.64) |
| LISQSSLYEQRNKNSVA | DASQRLS | QQYHRLPLS | 0.25 / 0.08 / 0.15 / -0.12 / -0.40 / 0.14 | 1 of 18 (2.96) |
| KVSWSDELQSRNKGQVA | SASTRES | QQYHRLPLS | 1.43 / nd / 0.69 / 0.90 / 0.64 / 1.04 | 0 of 18 |
| KYAQSMLYESRNFNNVA | EASTRES | QQYHRLPLS | 2.49 / 1.12 / nd / 0.84 / 1.39 / 1.55 | 0 of 18 |
| KVSMSVNYLQRNFNSVA | QASQRES | QQYHRLPLS | 0.60 / 0.32 / 0.32 / 0.10 / 0.43 / 0.32 | 1 of 18 (1.84) |
| KFSQSQPYESRMSNSVA | NASLRMS | QQYHRLPLS | 0.37 / 0.08 / 0.15 / -0.03 / 0.03 / 0.32 | 4 of 18 (2.58) |
| KLQQSDQYESRVKNSVA | QASVRES | QQYHRLPLS | 0.01 / 0.14 / 0.04 / -0.10 / -0.05 / 0.21 | 2 of 18 (2.58) |
| KWSFGVMGESRNKNSVA | DASTRES | QQYERLPLS | 0.24 / 0.06 / 0.03 / 0.03 / 0.23 / 0.30 | 0 of 18 |
| KLSMQEMMESRNKNSVA | QANTREE | QQYHRLPLS | -0.21 / -0.27 / -0.40 / -0.42 / -0.48 / -0.28 | 1 of 18 (4.38) |
| KLSQSMLYESRNDNSVA | QASTRED | QQYHRLPLT | 0.22 / 0.24 / -0.16 / 0.00 / 0.21 / 0.45 | 1 of 18 (2.96) |
| KISQAYLGEDRNKNSVA | NANTRES | QQYHRLPLS | -0.13 / -0.10 / -0.35 / -0.34 / -0.14 / 0.08 | 2 of 18 (2.79) |
| KLEWSQLYWSRNVNSVA | NASTREE | QQYHRLPLS | -0.16 / -0.29 / -0.33 / -0.38 / -0.39 / -0.17 | 2 of 18 (2.51) |
| KLSQSWLYLSRNMNAVA | NASQRLS | QQYHRLPLS | 0.31 / 0.00 / 0.06 / 0.09 / 0.06 / 0.24 | 2 of 18 (3.14) |
| KVQQSELGLSRNKNSVA | QASKRES | QQYHRLPLS | 0.46 / 0.28 / 0.14 / 0.18 / 0.11 / 0.39 | 1 of 18 (2.60) |
| KLSNQADYEDRNKNSVA | SASTRES | QQYHRLPLS | 0.02 / -0.11 / -0.26 / -0.35 / -0.20 / -0.10 | 1 of 18 (1.59) |
| KLQMQKLQWSRNKNSVA | EASTRES | QQYHRLPLS | 0.32 / 0.60 / 0.58 / 0.32 / 0.47 / 0.55 | 1 of 18 (2.67) |
| KSEDGVDDEERNDNSVA | NASTRES | QQYHRLPLS | 1.38 / 1.99 / 1.95 / 1.36 / 2.95 / 1.58 | 0 of 18 |
| KVSQSKLGESRNKNSVA | NASTREK | QQYHRLPLS | -0.02 / 0.26 / 0.16 / -0.08 / 0.21 / 0.05 | 0 of 18 |
| KLDQSWWREWRNKNSVA | QASTREQ | QQYHRLPLS | 1.08 / 0.80 / 0.80 / 0.45 / 0.09 / 0.38 | 0 of 18 |
| KFSQSVLYESRNKASVA | DASTRMS | QQYHRLPLS | -0.01 / -0.26 / -0.01 / -0.19 / -0.48 / -0.04 | 0 of 18 |
| KLSQSTPYESRMKNSVA | NASLREQ | QQYHRLPLS | 0.68 / 0.48 / 0.61 / 0.41 / 0.57 / 0.41 | 0 of 18 |
| KLQQQELYESRNWNSVA | NASDRQS | QQYHRLPLS | 0.30 / 0.52 / 0.46 / 0.60 / -0.04 / 0.43 | 0 of 18 |
| KWSWSVDLESRNDNSVA | DASCRED | QQYHRLPLS | 1.84 / 0.70 / 2.77 / 0.90 / 0.52 / 1.15 | 0 of 18 |
| KFVMSWGYESRNKNAVA | HASQRCS | QQYHRLPLS | 1.24 / 0.47 / 1.82 / 0.63 / 0.62 / 0.97 | 0 of 18 |
| KSMQSVQYEDRNKNSVA | EASTRCS | QQYHRLPLS | 0.93 / 1.38 / 0.59 / 0.30 / 0.75 / 0.66 | 0 of 18 |

The first 8 entries again:

CDR-L1	CDR-L2	CDR-L3	replicates, log10 nM	signal with controls
KFSQSWWYESRVKNNVA	NASQRES	QCYHRLPLS	0.75 / 0.52 / 1.04 / 0.79 / 0.98 / 0.74	1 of 18 (3.47)
KIQQFYEYESRNKNSVA	SASTRMS	QQYHRLPLS	0.41 / 0.14 / 0.54 / -0.08 / 0.50 / 0.22	1 of 18 (2.53)
KVPFSVLYESRNKNSVA	QASTREK	QQYHRLPLS	0.40 / 0.77 / 0.36 / 0.32 / 0.31 / 0.54	1 of 18 (2.89)
KLQMQMLYESRMMNSVA	DASQRES	QQYHRLPLS	-0.07 / -0.01 / -0.45 / -0.56 / -0.46 / -0.14	0 of 18
KLMQSMEYESRNSNSVA	QASTREH	QQYHRLPLM	2.05 / 2.22 / nd / nd / 2.39 / 1.16	0 of 18
KSSQMDLYESRNGNSVA	DASTRED	QQYHRLPLS	0.35 / 0.16 / -0.11 / -0.20 / 0.70 / 0.28	1 of 18 (2.22)
KLEQSMLYESRNSNSVA	NASTREH	QQYHRLPLM	0.24 / 0.17 / 0.28 / 0.15 / 0.06 / 0.08	1 of 18 (3.02)
ALSGSHLYESRMKNSVA	NASTREE	QQYHRLPLS	0.43 / 0.33 / 0.31 / 0.25 / 0.37 / 0.39	1 of 18 (3.59)